The nature of the data set: UV Tm analysis of unimolecular PNA hairpins (9 bp stem duplex). Format: physicochemical. To be noted: [1] approx. 7.5 μM; Buf: Tm Buffer (10 mM sodium phosphate, pH 7.0). As to the method:
The five Tm Samples of a dilution series of a particular unimolecular probe to be analyzed were simultaneously examined using a Cary 100 Bio UV-Visible Spectrophotometer (Varian Instruments) equipped with a 6×6 thermostatable multicell block running Win UV Bio application software package. To a 10×10 UV cell (Starna Cells, P/N 21-Q-10) was added a 7.2 mm stir bar and the 2.5 mL of each sample of the dilution series. The stirring accessory was used during all analysis. All samples were thermally denatured and reannealed prior to data collection by having the instrument rapidly ramp the temperature to a point above the melting temperature and then holding that temperature for 5-10 minutes before returning to the starting temperature. The temperature range over which data was collected was varied in response to the expected Tm which was roughly determined during the premelt and prereannealing step. Regardless of the temperature range, the temperature ramp rate for both melting “M” and reannealing “R” was always 0.5°C./min. The absorbance (260 nm, averaged over a 3 second collection) was plotted vs. the temperature of the multicell block.
After the Tm analysis was performed in Tm Buffer, to each cell was added 0.5 μL of 5M MgCl2 to thereby prepare a sample containing 1 mM MgCl2. The dilution effect was considered to be negligible. The Tm analysis was then performed again to determine whether the presence of MgCl2 had any; effect on the Tm of the unimolecular probe.
After the Tm analysis was performed in Tm Buffer and 1 mM MgCl2, to each cell was added 42 μL of saturated NaCl (approximately 6.11 M/L). The dilution effect was again considered to be negligible. The Tm analysis was then performed again to determine whether the presence of approximately 100 mM NaCl had any effect on the Tm of the unimolecular probe.

Take “Flu-OEE-ATA-TAT-TGG-CTG-ATC-CAA-TAT-AT-EE-K(dabcyl)-NH2 [P4]”: the “Tm, melting M” value worked out at 81.6 °C and the “Tm, reannealing R” value was found to be 80.9 °C.
In the same order, the values of “H-ATA-TAT-TGG-CTG-ATC-CAA-TAT-AT-KK-NH2 [PNAD, reference compound]” are 81.1 °C and 80.4 °C.
In the same order, the values of “H-OEE-ATA-TAT-TGG-CTG-ATC-CAA-TAT-AT-EEK-NH2 [P4N]” are 81.6 °C and 81.4 °C.
Taken in the same sequence, the figures for “H-OEE-ATA-TAT-TGG-OO-CCA-ATA-TAT-EEK-NH2 [P3N]” were 82.6 °C and 82.3 °C.

Source of the values: US6770442B2, “Methods for modulating the solubility of synthetic polymers” (Boston Probes, Inc., priority 1998, dated 2004).
